These results are taken from patent US20020010201A1, “Method for treating restless leg syndrome using pramipexole and clonidine” (priority 1999, published 2002).

The data set relates to patients with RLS. As to the kind of experiment: Treatment of 2 patients with RLS (therapeutic history, monotherapies and combination therapy of pramipexole and clonidine). The conditions noted are these: previous therapy of the 2 RLS patients. As for the experimental part: 2 patients with RLS (person and person) were treated with a combination therapy of pramipexole and clonidine.
1. […] The clonidine was also initially prescribed in a single dose of 0.075 mg two hours before bedtime and increased by 0.075 mg at intervals of 3 days.
2. Treatment with a Combination Therapy of Clonidine and Pramipexole After slowly bringing the clonidine therapy to a complete halt and after a treatment-free period of about 1 week, both patients were treated with a combination of 0.088 mg of pramipexole and 0.075 mg of clonidine. […] After 7 days the dosage of pramipexole had been increased to 0.18 mg and the dosage of clonidine to 0.15 mg, two hours before going to sleep.

For the substance bromocryptine, the “side effects preventing further dose increase” value was “side effects such as nausea, gastrointestinal problems and dizziness”.
